# Apparent affinities of Ab-14 variants for a coronavirus HR2 peptide

Values reported by Li et al. 2023, doi:10.1038/s41467-023-39022-2 (FLAb copy).

Binding partner: SARS-CoV-2 spike HR2 peptide, sequence PDVDLGDISGINAS.

The variants keep the heavy chain, the linker and the frameworks of Ab-14 (scFv order VH, a 15-residue (Gly4Ser)3 linker, VL).
VH: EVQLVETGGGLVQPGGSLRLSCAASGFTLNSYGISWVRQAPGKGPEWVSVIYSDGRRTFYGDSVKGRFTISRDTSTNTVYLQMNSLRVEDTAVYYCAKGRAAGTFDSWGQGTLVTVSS
VL: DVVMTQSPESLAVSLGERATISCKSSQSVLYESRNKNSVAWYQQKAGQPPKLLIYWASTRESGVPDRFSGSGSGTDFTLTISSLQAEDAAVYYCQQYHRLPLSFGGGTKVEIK

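Phage display of a naive human antibody library on the peptide gave the parent. Designed CDR sequences, proposed from the first random library and measured here. Group labels follow the data file (Ctrl: baseline library sampled from a position-specific scoring matrix, with some repeated check sequences; En: ensemble of fine-tuned language models; GP: Gaussian process model; HC: hill climbing; Gen: genetic algorithm; Gibbs: Gibbs sampling; a sequence that several methods proposed may carry one label only). The assay is AlphaSeq: two haploid yeast populations carry antibody and antigen on their surface. Mating (16 h, 30 °C) was followed by selection of diploids and sequencing of their barcodes. The ratio of observed to expected reads was calibrated, replicate by replicate, on BCL2-family standards whose Kd was known from biolayer interferometry. Mating was done six times.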

The parent's light chain CDRs are KSSQSVLYESRNKNSVA, WASTRES, QQYHRLPLS; each variant's own CDRs replace them letter for letter.
Values are log10 of the apparent Kd in nM; lower means stronger binding.
Replicates are averaged; those with no signal do not enter the mean.
An entry "no signal" has no value in the source: the pair was not observed among the diploids in any replicate. This suggests poor binding but is not conclusive.
Background: pairings of all light chain designs with three empty control strains gave a value in 4% of cases (median 2.64, 5th percentile 1.59). Values in that range, when seen in few replicates, are hard to tell from nonspecific mating.

"log10 Kd (nM), mean",replicates with signal,CDR-L1,CDR-L2,CDR-L3,group
0.18,6/6,KLSQSVLMESRNKNSVA,EASTRED,QQYHRLPLS,GP_Gen
0.42,6/6,KCQISVEQESRQKNSVA,NASKRES,QQYHRLPLS,GP_Gibbs
0.48,6/6,TITQSMLMTSHQMNSVA,HASTRED,QQYHRLPLI,En_HC
0.59,6/6,KSSESVLYESRNKNSVA,AASTRED,QQYHRMPLS,Ctrl
2.27,3/6,SLGLVTMLEEYARNNVA,NNSTRED,QQYDRLPLS,En_Gen
2.56,4/6,KVSEFMRGLMKMQDSIA,DNVTRNN,QQYDRLPLS,En_Gen
no signal,0/6,KSSQSVLYESRNKNSLA,WASTRES,DQYHQLPLS,Ctrl
no signal,0/6,KSSQSVTYESANKNSVA,WASTRES,QQYHRLPLS,Ctrl
0.10,6/6,KLQQSVGYESRNQNAVA,AASTREE,QQYHRLPLS,GP_Gibbs
-0.07,6/6,KFSQSVTYESRTKNSVA,NASTRES,QQYHRLPLS,GP_HC
1.72,6/6,KLSQSVNMTGKAKNSVA,ELSFREK,QQYERLPLS,En_HC
0.87,6/6,TISYSAMLTGLNRNSVA,QAEERLE,QQYNRLPLS,En_HC
0.76,6/6,KMSQSVQYESPNKHSVA,WASTRAS,QLYHRLPLS,Ctrl
0.21,6/6,KSSISVLYESQNKNSVA,EASQRES,QQYHRLPLS,GP_HC
1.05,6/6,KSSQSVLYESRNFNSVA,SASTREP,QQYHRLPLS,Ctrl
0.49,6/6,KLGMTAEMELKNRNSVA,ELVTRMS,QQYNRLPLS,En_Gen
-0.15,6/6,KCSQAFLYESRNKNSVA,DANTRES,QQYHRLPLS,GP_HC
0.94,6/6,TLAQGIYEPVRKSNNIA,EASHVGD,QQYERLPLE,En_Gibbs
0.04,6/6,NISYEQALSTNSVNNVA,QASVRAP,QYYQRLPLV,En_Gibbs
-0.48,6/6,KISQSSMYESRNKDSVA,QASTRES,QQYHRLPLS,Ctrl
no signal,0/6,KSMDSLLMESRNKNSVA,WASTRES,QQYHRLPLS,Ctrl
no signal,0/6,SSSQSVLYESRNKNSVA,CASTREV,NQYHRLPLS,Ctrl
0.31,6/6,KFSQKVLYEHGTKNSVA,NASTRES,QQYHRLPLS,GP_HC
0.37,6/6,KLQQLMLYESRMKNSVA,NASQRWS,QQYHRLPLS,GP_Gibbs
-0.13,6/6,KLQQSDLYESRNKNSVA,EASTRES,QQYHRLPLS,GP_Gen
1.11,6/6,KSSQSVLYESRNKNSVA,SASTPYS,QQYHRLPLS,Ctrl
-0.40,6/6,KLSQGWLYESRNANNVA,NASRREQ,QQYHRLPLS,GP_Gibbs
1.76,6/6,HMSALTYQGMRMRNSVA,QMTTREN,QQYDRLPLA,En_Gen
-0.11,6/6,RLMQSVLYESRNKNSVA,HASLRED,QQYHRLPLS,GP_HC
0.77,6/6,KSSQSVLYESTNKNSVA,EASTREP,QQCHRLPLS,Ctrl
no signal,0/6,KLQQWDLYESRNKNSVA,QASERES,QCYHRLPLS,GP_Gibbs
0.97,6/6,MISQLYNMGQFAINSVA,QAEIRNE,QQYDRLPLI,En_Gen
-0.05,6/6,KVQQSVPYESRNKNSVA,NASQRES,QQYHRLPLS,GP_Gen
no signal,0/6,LSSQSLLYESRNWNSVA,MASTRAS,QDYHRLPCD,Ctrl
1.41,5/6,KSSQSVSPESANKNSVA,WASTRES,QQYHRLPLS,Ctrl
no signal,0/6,QLAVDRGQEYKMGAAIA,GKTTVED,QQYARLPLS,En_Gibbs
2.16,6/6,KSSQSVLYESRNKNSVA,YASTRES,QQYHRLPLS,Ctrl
0.37,6/6,KLENSNLYESRNGNSVA,NASTREH,QQYHRLPLS,GP_Gibbs
1.21,6/6,KYPQSVLYESRNKNSVA,WASTRES,QQYHRLPLS,Ctrl
no signal,0/6,KMEMDFDGNDVNRNSIA,SDEAVTR,QHYARLPLS,En_Gibbs
1.62,1/6,KSSESVDYESRNKNSVA,WASTRES,QQYVRLPLL,Ctrl
0.32,6/6,KLEQSELYQSRNPQSVA,NASERES,QQYHRLPLS,GP_Gibbs
0.81,6/6,KIGYNMGTESFRKDNIA,DVRDREE,QQYYRLPLS,En_Gen
1.67,6/6,KSSQSALYESRNKNSVA,WASTRES,QQYHCLPLS,Ctrl
-0.06,6/6,KFSQSVAYESRTKNSVA,NASTRES,QQYHRLPLS,GP_HC
-0.10,6/6,KVQQSMLYESRNKNSVA,NASTRMS,QQYHRLPLS,GP_Gen
0.40,6/6,KIQSHLSQSFASKNNIA,DRVQSAE,QQYNRLPLV,En_Gibbs
0.10,6/6,SIFHGDELYGQNERNIA,DVQARIV,QQYTRLPLH,En_Gibbs
0.87,6/6,KSSPSVLYESRNKASVA,DASTRMS,QQYHRLPLS,GP_Gibbs
-0.01,6/6,KLRWSNLYESRNANSVA,NASQRCS,QQYHRLPLS,GP_Gibbs
-0.05,6/6,KMSQSVLYESRNKNNVA,DASTRES,QQYHRLPLS,GP_Gen
no signal,0/6,KLSMMLHVTGVNKNNVA,ELTMRGN,QQYHRLPLM,En_Gen
2.09,2/6,MFSQLFMMGSRNYNSVA,QASTRES,QQYHRLPLI,En_HC
-0.41,6/6,KLSQSVLYESRNSNSVA,NASTRED,QQYHRLPLS,GP_Gen

The 6 strongest on average among those seen in every replicate, once more:

| CDR-L1 | CDR-L2 | CDR-L3 | group | log10 Kd (nM), mean | replicates with signal |
|---|---|---|---|---|---|
| KISQSSMYESRNKDSVA | QASTRES | QQYHRLPLS | Ctrl | -0.48 | 6/6 |
| KLSQSVLYESRNSNSVA | NASTRED | QQYHRLPLS | GP_Gen | -0.41 | 6/6 |
| KLSQGWLYESRNANNVA | NASRREQ | QQYHRLPLS | GP_Gibbs | -0.40 | 6/6 |
| KCSQAFLYESRNKNSVA | DANTRES | QQYHRLPLS | GP_HC | -0.15 | 6/6 |
| KLQQSDLYESRNKNSVA | EASTRES | QQYHRLPLS | GP_Gen | -0.13 | 6/6 |
| RLMQSVLYESRNKNSVA | HASLRED | QQYHRLPLS | GP_HC | -0.11 | 6/6 |

The authors averaged sequences with at least three values out of six and counted those with two or fewer as poor binders.
Of ten entries with the parent sequence, four were seen in most replicates (averages 0.34 to 2.37), three in one and three in none, so single entries are noisy.
A sequence measured in both rounds can read differently, since the two assays cover different ranges.